Literature values in patent US10954430B2, “Low-toxicity, low-flammability, environmentally-safe, friction reducer fluid for hydraulic fracturing” (priority 2012, dated 2021).

Key:
Conditions in all cases: in vivo
[1] = test system: Pimephales promelas (fathead minnow)
rat = test system: rat
[2] = test system: daphnia magna (water flea)

Substance: Tripropylene glycol ether
- LC50 [1]: 11.619 mg/mL
- LD50 (rat): 3200 mg/kg
- LC50 [2]: > 10,000 mg/L
